Amino acid sequences for entries named in this document (tags omitted).
UniProt P26358, whole entry: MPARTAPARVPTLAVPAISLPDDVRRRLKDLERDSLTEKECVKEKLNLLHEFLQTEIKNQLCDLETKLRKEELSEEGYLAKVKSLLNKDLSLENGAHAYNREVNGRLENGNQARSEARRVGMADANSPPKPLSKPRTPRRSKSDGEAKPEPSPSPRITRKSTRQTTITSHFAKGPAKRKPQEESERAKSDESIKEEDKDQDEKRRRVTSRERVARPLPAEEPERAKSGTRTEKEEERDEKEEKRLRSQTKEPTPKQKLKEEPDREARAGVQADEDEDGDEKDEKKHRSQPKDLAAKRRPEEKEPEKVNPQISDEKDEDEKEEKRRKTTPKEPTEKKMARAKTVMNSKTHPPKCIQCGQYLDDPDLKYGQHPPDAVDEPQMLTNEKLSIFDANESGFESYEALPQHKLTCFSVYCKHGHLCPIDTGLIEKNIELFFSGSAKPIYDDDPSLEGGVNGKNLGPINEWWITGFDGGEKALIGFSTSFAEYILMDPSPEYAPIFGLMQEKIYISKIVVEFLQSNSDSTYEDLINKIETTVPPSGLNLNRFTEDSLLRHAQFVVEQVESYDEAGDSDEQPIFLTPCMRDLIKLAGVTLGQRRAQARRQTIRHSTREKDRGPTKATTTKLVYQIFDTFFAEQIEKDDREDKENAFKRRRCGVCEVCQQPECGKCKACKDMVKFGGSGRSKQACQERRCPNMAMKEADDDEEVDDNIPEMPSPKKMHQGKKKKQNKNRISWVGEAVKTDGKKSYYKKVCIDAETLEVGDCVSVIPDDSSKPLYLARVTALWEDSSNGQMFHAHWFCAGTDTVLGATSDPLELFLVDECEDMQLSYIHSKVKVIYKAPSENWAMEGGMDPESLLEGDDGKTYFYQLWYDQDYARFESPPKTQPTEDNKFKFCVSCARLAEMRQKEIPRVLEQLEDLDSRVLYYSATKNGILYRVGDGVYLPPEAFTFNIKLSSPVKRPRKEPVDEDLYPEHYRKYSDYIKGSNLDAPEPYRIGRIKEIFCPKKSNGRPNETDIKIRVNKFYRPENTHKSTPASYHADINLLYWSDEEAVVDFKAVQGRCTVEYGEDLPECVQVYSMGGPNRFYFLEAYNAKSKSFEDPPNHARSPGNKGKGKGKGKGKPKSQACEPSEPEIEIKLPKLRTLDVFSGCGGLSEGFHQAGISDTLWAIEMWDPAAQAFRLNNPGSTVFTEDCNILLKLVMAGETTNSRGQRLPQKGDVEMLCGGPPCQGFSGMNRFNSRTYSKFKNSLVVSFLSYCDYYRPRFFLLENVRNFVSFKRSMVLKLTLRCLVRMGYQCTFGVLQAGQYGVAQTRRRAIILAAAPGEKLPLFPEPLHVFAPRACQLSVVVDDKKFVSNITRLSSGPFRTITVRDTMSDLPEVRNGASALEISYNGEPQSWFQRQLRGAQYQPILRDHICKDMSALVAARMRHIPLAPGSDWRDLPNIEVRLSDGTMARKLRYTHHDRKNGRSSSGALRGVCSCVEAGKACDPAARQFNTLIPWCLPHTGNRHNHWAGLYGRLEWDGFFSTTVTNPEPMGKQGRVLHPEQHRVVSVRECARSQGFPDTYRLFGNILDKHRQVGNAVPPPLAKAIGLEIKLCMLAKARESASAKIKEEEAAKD
UniProt Q96KQ7, whole entry: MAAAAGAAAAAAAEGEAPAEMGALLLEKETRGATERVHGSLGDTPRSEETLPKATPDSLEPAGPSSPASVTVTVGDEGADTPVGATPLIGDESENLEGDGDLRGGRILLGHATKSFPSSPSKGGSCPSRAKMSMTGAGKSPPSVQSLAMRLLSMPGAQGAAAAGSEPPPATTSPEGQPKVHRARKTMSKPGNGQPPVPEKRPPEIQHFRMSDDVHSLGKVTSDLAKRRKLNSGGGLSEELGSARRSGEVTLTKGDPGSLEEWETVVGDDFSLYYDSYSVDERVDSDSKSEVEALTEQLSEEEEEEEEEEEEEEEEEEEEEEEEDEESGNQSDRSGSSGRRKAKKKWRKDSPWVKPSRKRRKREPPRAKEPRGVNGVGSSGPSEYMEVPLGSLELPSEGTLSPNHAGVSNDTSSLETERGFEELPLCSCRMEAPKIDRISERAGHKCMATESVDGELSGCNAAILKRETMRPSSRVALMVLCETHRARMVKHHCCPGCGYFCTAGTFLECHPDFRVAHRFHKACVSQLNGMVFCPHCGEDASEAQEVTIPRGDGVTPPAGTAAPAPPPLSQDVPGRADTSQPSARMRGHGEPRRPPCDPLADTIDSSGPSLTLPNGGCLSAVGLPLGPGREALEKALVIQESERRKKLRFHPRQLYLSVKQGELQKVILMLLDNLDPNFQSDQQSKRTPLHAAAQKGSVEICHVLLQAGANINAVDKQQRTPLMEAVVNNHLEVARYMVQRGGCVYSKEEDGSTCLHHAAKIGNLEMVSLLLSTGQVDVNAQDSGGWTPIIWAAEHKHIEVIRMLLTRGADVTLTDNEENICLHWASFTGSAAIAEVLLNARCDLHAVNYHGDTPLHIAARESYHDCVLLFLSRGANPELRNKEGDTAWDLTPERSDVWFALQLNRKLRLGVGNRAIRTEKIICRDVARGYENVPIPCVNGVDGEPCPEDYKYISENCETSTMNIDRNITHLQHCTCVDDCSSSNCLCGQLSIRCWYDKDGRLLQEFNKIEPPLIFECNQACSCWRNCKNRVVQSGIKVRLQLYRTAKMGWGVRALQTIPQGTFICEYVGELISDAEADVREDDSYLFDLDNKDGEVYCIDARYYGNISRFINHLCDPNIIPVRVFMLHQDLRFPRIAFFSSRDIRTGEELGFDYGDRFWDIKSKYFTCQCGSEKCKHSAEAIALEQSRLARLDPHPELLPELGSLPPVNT

In patent US9840500B2, “Compounds as dual inhibitors of histone methyltransferases and DNA methyltransferases” (FUNDACIÓN PARA LA INVESTIGACIÓN MÉDICA APLICADA, priority 2014, dated 2017):

Columns and labels:
[1] = target: DNMT1 (Homo sapiens, UniProt P26358); experiment: DNMT1 enzyme activity assay (TR-FRET, EPIgeneous methyltransferase assay); format: biochemical; conditions: read-out: DNMT1 IC50
[2] = target: human G9a enzyme (Homo sapiens, UniProt Q96KQ7); experiment: G9a enzyme activity assay (TR-FRET); format: biochemical; conditions: read-out: G9a IC50

CCc1ccc(-c2cc(NC3CCN(C)CC3(F)F)c3cc(OC)c(OCCCN4CCCC4)cc3n2)o1 (centres unmarked)
IC50 [1]: 1000 to 10000 nM
IC50 [2]: 100 to 500 nM
